Assay results taken from PMC10624687 (Nature Communications, 2023).

Biological target: HsClpP (mitochondrial caseinolytic protease P) (Homo sapiens, UniProt Q16740)
Assay: biochemical
Design: gene CLPP

## C[C@@H]1CN(Cc2ccc(F)cc2)CCN1C(=O)COc1ccc(Cl)cc1NC(N)=O [BX471]
  EC50: 6.07 µM
